In patent US7347984B2, “Mammalian agmatinase inhibitory substance” (Jackson State University, priority 2004, dated 2008):

Tested on: rat brain NMDA receptor
Test: [3H]-MK801 binding assay in rat brain membranes
Conditions: Conc = 0.1 mM
Method: The binding of [^3H]-MK801 to NMDA (N-methyl-D-aspartate) receptors was measured in rat brain membranes as described in Renolds et al. (1990). Briefly, the membranes were incubated in HEPES buffer (pH 7.4) containing 0.4 nM [^3H]-MK801, 100 μM glutamate, and 30 μM glycine for 1 hour at 25° C. The binding was terminated by rapid filtration over glass fiber filters and radioactivity counted. Nonspecific binding was defined using 50 μM unlabelled MK801.
QSAR were studied by ab initio Hartree-Fock calculations with the Gaussian 94 computer program (Frisch et al. 1995). Based on the optimized geometry and van der Waals radius of each atom, calculations were performed with BlogP and BlogW programs (Bodor et al. 1989, 1992A, and 1992B) to determine molecular surfaces, volumes, ovalities, partition coefficients, and water solubilities. Linear combinations of these calculated descriptors were then fitted to the observed enzyme activities. The observed activities were the remaining percentage of rat agmatinase activity at 0.5 mM of each compound, the remaining percentage of rat NOS isozyme activity at 1 mM of each compound, and the remaining percentage of rat brain NMDA receptor binding at 0.1 mM of each compound.

Substance: Trans-4-Aminocyclohexyl guanidine
- 3H-MK801 Binding Remaining (%): 97.3%
